Assay results: patent US20250327027A1, “METHODS TO GENERATE ENHANCED TUMOR INFILTRATING LYMPHOCYTES THROUGH MICROFLUIDIC DELIVERY” (STEMCELL TECHNOLOGIES CANADA INC., priority 2021, published 2025)
Where “and” joins values, the source holds several entries; their conditions need not be identical. Equal entries are not always repeated.

Assays:
[1] = system: melanoma and colorectal TILs; experiment: Post thaw analysis of cryopreserved squeeze processed TILs (effect of DMSO and HSA); format: cell-based
Protocol: To evaluate whether freeze-thaw (including any effect from one or more of the cryopreservatives) has an effect on the squeeze processed TILs described herein, the following methods were used and the mRNA translation and phenotypic expression were assessed. Briefly, cryopreserved, squeezed melanoma and colorectal TILs were thawed and resuspended in CTS OpTmizer media. Post thaw cell recovery and viability were measured via NC-200. Cells were plated in tissue culture-treated plates and incubated for 4, 24 hours, and 8 days in a 37° C. incubator. The TILs were squeezed were assessed at each time point including t=0 (immediately post thaw) by flow cytometry for viability, surface levels of mbIL-2 and mbIL-12, and phenotypic markers such as CCR7, CD45RO, CD62L, CD127, KLRG-1, CD25, CD69, CD39, CD103, and CD25.
To assess the potential impact from DMSO, the following TILs were formulated in varying concentrations of DMSO (i.e., 0%, 1.25%, 2.5%, and 5%): (1) TILs squeeze processed with mRNA encoding membrane-bound LL-2 and mRNA encoding IL-12; and (2) non-squeeze processed TILs. Each of the formulated samples also contained 5% human serum albumin. Then, the TILs were cryopreserved and subsequently thawed as described above.
Each of these formulated samples contained 5% DMSO. Then, the TILs were cryopreserved and subsequently thawed as described above.

pSTAT5 (Tyr694) = experiment: pSTAT5 expression in mbIL-2 and mbIL-7 TILs starved of rhIL-2 (FACS); format: cell-based, human; conditions: first 48 hours after cell processing, over control TILs
Protocol: Fresh post-REP TILs were collected from a 6-well G-Rex plate, centrifuged at 400 rcf at room temperature, and then washed and resuspended to 3-10M/mL in AIM V media without rhIL-2 to remove rhIL-2-dependent induction of pSTAT5 prior to squeeze processing. Cells were transferred to a T25 flask and cultured at 37° C. for 24 hr. Then, the cells were then prepared for squeeze-processing. The cells were counted, filtered through a 40-um cell strainer, washed, and the concentration was adjusted to 25M/mL by adding XVivo-15.
As shown above in Table 10, Group A was used as a control (i.e., not contacted with any payload and not squeeze processed). Group B was squeeze processed without any payload at room temperature using a microfluidic constriction (70 μm depth, 4.5 μm width, and 10 μm length) at 30 psi. Groups C-E were squeeze processed at room temperature with the payloads shown above, i.e., Group C: 500 μg/mL mbIL-2 mRNA; Group D: 350 μg/mL mbIL-7 mRNA; Group E: 500 μg/mL mbIL-2 mRNA+350 μg/mL mbIL-7 mRNA. Groups C-E were squeeze processed using the same conditions as in Group B (i.e., microfluidic constriction. 10 μm depth, 4.5 μm width, and 10 μm length; at 30 psi). […]
At 4, 24, 48 and 72 hrs, 200 ul of cells were aspirated and centrifuged at 400 rcf for 4 minutes at room temperature. […] The cells were then analyzed using an Attune Flow cytometer

TILs [2] = experiment: Effect of anti-CD28 on TIL expansion (melanoma tumor); format: cell-based
Protocol: To assess the effect that anti-CD28 stimulation has on during the initial TIL expansion and culturing, the following methods were used. Briefly, freshly resected melanoma tumor was rinsed in 1× Hank's Balanced Salt Solution (HBSS) with 10 μg/mL gentamicin and dissected into 8-27 mm^3 fragments using a forceps and scalpel. Duplicate wells of a G-Rex6M plate were filled with CTS OpTmizer media with 100 U/mL penicillin, 100 μg/mL streptomycin, and either 6,000 IU/mL recombinant IL-2, 3,000 U/mL recombinant IL-15+0.05 μg/mL anti-CD28, or 3,000 U/mL recombinant IL-15+0.5 μg/mL anti-CD28. Five tumor fragments, 8-27 mm^3 in size, per well were added to the G-Rex6M plate. The G-Rex6M plate was then placed in a 37° C., 5% CO2 incubator for 5 days.
On day 5, the G-Rex6M plate was removed from the incubator 20 mL of CTS OpTmizer media with 100 U/mL penicillin, […] streptomycin, and either 6,000 IU/mL of IL-2 or 3,000 U/mL IL-15 were added on top of the 20 mL of media in each of wells of the G-Rex6M plate. The G-Rex6M plate was returned to the 37° C., 5% CO2 incubator. On day 9, the G-Rex6M plate was removed from the incubator. 20 mL of culture media were removed from each well and 20 mL of CTS OpTmizer media with 100 U/mL penicillin, 100 μg/mIL streptomycin, and either 6,000 IU/mL of IL-2 or 3,000 U/mL IL-15 were added back. The G-Rex6M plate was returned to the 37° C., 5% CO2 incubator.
On day 13, the TILs were harvested and transferred to a 50 mL conical tube. The number and viability of the TILs was assessed using a NucleoCounter NC-200.

TILs [3] = experiment: Effect of cytokine (IL-2 or IL-15) during TIL expansion (colorectal tumor); format: cell-based
Protocol: To assess the effect of different cytokines (IL-2 or IL-15) during the initial TIL expansion and culturing, the following methods were used. Briefly, freshly resected colorectal tumor was rinsed in 1× Hank's Balanced Salt Solution (HBSS) with 10 µg/mL gentamicin and dissected into 8-27 mm^3 fragments using a forceps and scalpel. Duplicate wells of a G-Rex6M plate were filled with CTS OpTmizer media with 100 U/mL penicillin, 100 μg/mL streptomycin, and either 6,000 IU/mL recombinant IL-2, 500 U/mL recombinant IL-15, or 3,000 U/mL recombinant IL-15 Five tumor fragments, 8-27 mm^3 in size, per well were added to the G-Rex6M plate. The G-Rex6M plate was then placed in a 37° C., 5% CO2 incubator for 3 days.
On day 3, the G-Rex6M plate was removed from the incubator. 20 mL of CTS OpTmizer media with 100 U/mL penicillin, 100 μg/mL streptomycin, and either 6,000 IU/mL of IL-2, 500 U/mL IL-15, or 3,000 U/mL IL-15 were added on top of the 20 mL of media in each of wells of the G-Rex6M plate. The G-Rex6M plate was returned to the 37° C., 5% CO2 incubator. On day 7 and 10, the G-Rex6M plate was removed from the incubator. 20 mL of culture media were removed from each well and 20 mL of CTS OpTmizer media with 100 U/mL penicillin, 100 μg/mL streptomycin, and either 6,000 IU/mL of IL-2, 500 U/mL IL-15, or 3,000 U/mL IL-15 were added back. The G-Rex6M plate was returned to the 37° C., 5% CO2 incubator.
[…] The number and viability of the TILs was assessed using a NucleoCounter NC-200.

[4] = 6000 IU/mL IL-2, replicate wells

| Substance | viability at various time points post-thaw ([1]; HSA 0% to 10% in formulation with 5% DMSO) | membrane-bound IL-2 and membrane-bound IL-12 expression post-thaw ([1]; HSA 0% to 10%, 4 hours post-thaw) | pSTAT5 signal (pSTAT5 (Tyr694)) | Cell Count on Day 13 (TILs [2]; [4]) | Viability on Day 13 (TILs [2]; [4]) | TIL expansion in culture (TILs [2]; melanoma tumor fragments) | Cell Count on Day 13 (TILs [3]; [4]) | Viability on Day 13 (TILs [3]; [4]) | TIL expansion in culture (TILs [3]; colorectal tumor fragments) |
| --- | --- | --- | --- | --- | --- | --- | --- | --- | --- |
| HSA: human serum albumin in cryopreservation formulation | less HSA could result in improved viability | greatest membrane-bound IL-2 and membrane-bound IL-12 expression was observed with reduced HSA concentration |  |  |  |  |  |  |  |
| IL-2: recombinant (human) IL-2 added to culture media |  |  | increased pSTAT5 signal over control TILs | 1.06 × 10^6 and 5.22 × 10^7 | 97.6% and 94.4% | promote TIL expansion | 2.11 × 10^7 and 4.00 × 10^7 | 87.2% and 95.5% | promote TIL expansion |
